From publication PMC6410080 (Viruses, 2019)
Structures can show the parent of a compound that is named as a salt.

Experiments:
HeLa Kyoto cells = conditions: Table S3, MTT
[1] = system: DID-labelled SFV hemifusion/fusion; assay: microbe, parasite or virus in culture; format: cell-based; conditions: Semliki Forest virus, HeLa Kyoto, 40 min, read-out: Inhibition of DID-SFV de-quenching (hemifusion/fusion)
[2] = system: clathrin-mediated uptake of transferrin

| Structure (SMILES) | TC50 SFV (7h) (HeLa Kyoto cells) | other results |
| --- | --- | --- |
| CCCCc1oc2ccccc2c1C(=O)c1cc(I)c(OCCN(CC)CC)c(I)c1 [Amiodarone, Amiodarone hydrochloride] | 96.8 mM | – |
| O=C1c2c(O)ccc(O)c2C(=O)c2c(NCCNCCO)ccc(NCCNCCO)c21 [Mitoxantrone, Mitoxantrone dihydrochloride] | – | inhibition at 10 µM [1]: > 50% |
| O=C(Nc1ccc([N+](=O)[O-])cc1Cl)c1cc(Cl)ccc1O [Niclosamide] | – | Transferrin internalisation compared to DMSO controls [2]: inhibit both virus and transferrin internalisation |
| CC(C)(C)c1cc(C=C(C#N)C#N)cc(C(C)(C)C)c1O [Tyrphostin A9] | >50 mM | – |
